# Test results taken from PubChem BioAssay AID2100 (National Center for Advancing Translational Sciences (NCATS), 2009).
# Only a part is listed here, and it is no random draw. Records with an inconclusive call do not appear. Calls of active or inactive are those of the source. The call rests on the fitted dose curve; in most records, active means well fitted inhibition curve with a large enough effect; inconclusive means small, poorly fitted or top-dose-only effect, or another doubt; inactive means no such curve, though single readings can be large or run the other way.
# Target: Lysosomal alpha-glucosidase (Homo sapiens) (UniProt P10253)
# Assay: qHTS Assay for Inhibitors and Activators of Human alpha-Glucosidase Cleavage of Glycogen;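 further: 0% = full enzyme reaction and -100% = no-enzyme basal signal; the screen sought inhibitors and activators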
# Details: recombinant GAA, glycogen substrate, Amplex Red glucose oxidase fluorescence; at 76.4 µM (top of the series) unless noted
# Source text: NIH Chemical Genomics Center [NCGC] NIH Molecular Libraries Probe Production Centers Network [MLPCN] MLPCN Grant: R03 MH084841-01 Assay Submitter (PI): Wei Zheng NCGC Assay Overview: Alpha-glucosidase is responsible for the hydrolysis of terminal, non-reducing 1,4-linked alpha-D-glucose residues, which releases alpha-D-glucose. It is a lysosomal hydrolase that is required for the degradation of a small percentage (1-3%) of cellular glycogen in humans. Deficiency of this enzyme results in glycogen-storage disease type II (GSDII), also referred to as Pompe disease, an autosomal recessive disorder. Structurally normal glycogen is accumulated in the lysosomes and cytoplasm in affected patients, primarily in muscle tissues. Excessive glycogen storage within lysosomes may interrupt normal functioning of other organelles and leads to cellular injury. In turn, this leads to enlargement and dysfunction of the entire organ involved (eg: cardiomyopathy and muscle weakness). It has been reported that the improper folding and trafficking of alpha-glucosidase resulting from genetic mutations may account for a significant number of Pompe patients. […] We optimized this alpha-glucosidase assay in 1536-well plate format for identification of novel small molecule inhibitors or activators with structures other than the sugar analogs in order to develop new pharmacological chaperones. Previous assays of alpha-Glucosidase have utilized a non-natural fluorescent substrate to probe enzyme activity. The present assay measures enzyme activity on glycogen using a coupled-assay system to glucose oxidase.
# NCGC Assay Protocol Summary: This is an enzyme assay using glycogen from bovine liver (Sigma catalog #: G0885) as the substrate and recombinant human alpha-glucosidase as the enzyme preparation. Upon hydrolysis of the substrate, the glucose product can be detected using the Amplex Red Glucose Oxidase Assay Kit (Invitrogen catalog #: A22189). The product of this reaction can be read with a fluorescence plate reader with an excitation at 573 nm and an emission at 610 nm. Data were normalized to the controls for basal activity (without enzyme) and 100% activity (with enzyme). The AC50 values were determined from concentration-response data modeled with the standard Hill equation. Assay buffer for enzyme reaction: 50 mM citric acid (titrated with potassium phosphate to pH 5.0), 0.01% Tween-20 (pH 5.0 is an optimal condition for this enzyme assay) Assay buffer for Amplex Red reaction: Tris-HCl, pH 7.5 1536-well assay protocol for the alpha-glucosidase assay: (1) Add 2 ul/well alpha-glucosidase enzyme solution (4 nM final) (2) Add 23 nL compounds in DMSO solution. The final titration was 0.7 nM to 77 uM. (3) Add 1 ul of glycogen substrate solution (30 ug) (4) Incubate at 37 C for 40 min (5) Add 2 ul tris-HCl buffer with Amplex Red reagents (6) Incubate 45 min at room temperature. (7) Detect the assay plate in a ViewLux plate reader (PerkinElmer) with Ex=573 nm and Em=610nm. Keywords: Alpha-glucosidase, Pompe Disease, pharmacological chaperone, chaperone therapy, high throughput screening, alpha-glucosidase inhibitor, MLSMR, MLSCN, NIH Roadmap, qHTS and NCGC
row,Compound,"activity change, negative = inhibition"
1,Nc1ccccc1[As](=O)(O)c1ccccc1,inactive: -3.72%
2,O=C(O)COc1ccc([As](=O)(O)O)cc1[N+](=O)[O-],inactive: 2.48%
3,CCOP1(=S)c2c(C)nn(CCC#N)c2N=C(c2ccccc2F)N1C (stereo not given),inactive: 7.76%
4,O=P(Nc1nccs1)(c1ccccc1)c1nc2ccccc2s1 (stereo not given),inactive: 5.14%
5,O=P(Nc1nccs1)(Oc1ccccc1)Oc1ccccc1,inactive: 10.7%
6,CS(=O)(=O)c1cc([N+](=O)[O-])c2no[n+]([O-])c2c1,inactive: 2.47%
7,CCOP1(=S)c2c(C)nn(CCC#N)c2N=C(c2ccc(F)cc2)N1C (stereo not given),inactive: -0.754%
8,CN(C(=O)Cc1ccccc1)[C@@H]1CC[C@]2(CCCO2)C[C@H]1N1CCCC1,inactive: 7.51%
9,O=[N+]([O-])c1ccc2c(c1)nnn2O,inactive: 8.34%
10,NC(=O)Nc1ccc([As](=O)(O)O)cc1,inactive: 9.8%
11,O=[As](O)(c1cccc(O)c1)c1cccc(O)c1,inactive: 2.11%
12,Cc1cccc(OCC(=O)OC2CN3CCC2CC3)c1 (stereo not given),inactive: -1.35%
13,O=C(OC1CN2CCC1CC2)c1ccc(Cl)cc1 (stereo not given),inactive: 3.59%
14,COc1cc(C(=O)NCC2(N3CCOCC3)CCCCC2)cc(Cl)c1OC(C)C,inactive: 28.1%
15,O=[As](O)(O)c1cccnc1,inactive: 0.424%
16,CS(=O)(=O)c1ccc(Cl)c(NC(=O)COC(=O)C(O)(c2ccccc2)c2ccccc2)c1,inactive: -4.24% [at 76.3 µM]
17,COc1cc(C2NCCC3(OCCO3)C2(C)C)cc(OC)c1OC (stereo not given),inactive: -0.517%
18,CCOP(=O)(Nc1cccc2ccccc12)OCC,inactive: 1.29%
19,Cc1ccc(NCCc2c([N+](=O)[O-])cc([N+](=O)[O-])cc2[N+](=O)[O-])cc1,inactive: -10.8%
20,Nc1cccc2c([As](=O)(O)O)cccc12,inactive: -8%
21,CCCOP(=S)(Nc1nc(N)cc(=O)[nH]1)OCCC,inactive: -1.29%
22,Clc1n[nH]nc1-c1nn[nH][15n]1,inactive: 0.0318%
23,CC(C)(C)C(=O)NC(Sc1ncccn1)C(Cl)(Cl)Cl (stereo not given),inactive: 0.814%
24,O=P1(Nc2ccccn2)COc2ccccc2OC1,inactive: -0.0921%
25,CCC1=CC2Cc3nc4ccc(Cl)cc4c(N)c3C(C1)C2 (stereo not given),inactive: 13.9% [at 76.3 µM]

row,Compound,"activity change, negative = inhibition"
1,CCOP(=O)(NC(=NC(C)c1ccccc1)NC(C)c1ccccc1)OCC (stereo not given),inactive: 2.49%
2,CCOP(=O)(Nc1ccc(C)cn1)OCC,inactive: -7.16%
3,CC(C)/C=N\N=C(\N)N[N+](=O)[O-],inactive: 1.09%
4,CN(C(=O)Cc1ccc(Cl)c(Cl)c1)[C@@H]1CCCC[C@H]1N1CCCC1,inactive: -0.741%
5,O=[As](O)(c1ccccc1Br)c1ccccc1Br,inactive: 2.28%
6,CN(C)C1(CNC(=O)c2ccc(S(C)(=O)=O)cc2)CCCCC1,inactive: -6.5%
7,O=C(/C=C/c1ccccc1)OC1CN2CCC1CC2 (stereo not given),inactive: 7.32%
8,Cc1nn(-c2ccccc2)c2c1P(=O)(N1CCOCC1)N(C)C(c1ccccc1)=N2 (stereo not given),inactive: 2.15%
9,CC1CCC(C(C)C)C(OP(=O)(Nc2ccccn2)c2ccccc2)C1 (stereo not given),inactive: -1.18%
10,Cc1ccc(C(=O)OC2CN3CCC2CC3)cc1 (stereo not given),inactive: -3.44%
11,Nc1cccc([As](=O)(O)c2ccccc2)c1,inactive: -0.0484%
12,O=P1(Nc2ccc(Br)cn2)COc2ccccc2OC1,inactive: -6.64%
13,Cc1ccc(OCC(=O)OC2CN3CCC2CC3)cc1 (stereo not given),inactive: -0.655%
14,O=[As](O)(c1cccs1)c1cccs1,inactive: -4.19%
15,O=P1(Nc2ncccn2)COc2ccccc2OC1,inactive: 7.63%
16,CCCCOc1ccc(C(=O)NCC2(N3CCCCC3)CCCCC2)cc1OC,inactive: -7.09% [at 76.3 µM]
17,Cc1cc(SC(NC(=O)c2ccccc2)C(Cl)(Cl)Cl)nc(C(C)C)n1 (stereo not given),inactive: -3.6%
18,CCOC(=O)Nc1ccc([As](=O)(O)O)c(O)c1,inactive: 5.05%
19,O=P(Nc1ccccn1)(c1cccc2ccccc12)c1cccc2ccccc12,inactive: -7.54%
20,O=[N+]([O-])c1ccc(Nc2ccc(Oc3ccc([N+](=O)[O-])cc3[N+](=O)[O-])cc2)c([N+](=O)[O-])c1,inactive: 0.349%
21,CCOC(=O)Nc1cccc([As](=O)(O)O)c1,inactive: 2.8%
22,O=C(COc1ccccc1)OC1CN2CCC1CC2 (stereo not given),inactive: -5.6%
23,O=C(Nc1ccncc1[N+](=O)[O-])c1ccc([N+](=O)[O-])cc1[N+](=O)[O-],inactive: 3.75%
24,COP1(=S)c2c(C)nn(CCC#N)c2N=C(c2ccc(F)cc2)N1C (stereo not given),inactive: 5.47%
25,CCC(C)N(CC(C)C)C(=S)SC(NC(C)=O)C(Cl)(Cl)Cl (stereo not given),inactive: 0.334%
